Values of other authors in patent US12186320B2, “Therapeutic agent containing pyrazolo[3,4-d]pyrimidine compound as active ingredient” (TAIHO PHARMACEUTICAL CO., LTD., priority 2018, dated 2025).

Key:
[1] = test system: Champions Tumor Graft models CTG-1171; conditions: cited from earlier work
[2] = test system: Breast cancer (primary), HER2 +; conditions: single patient; neighbouring lines without a result appear to be partners of the same regimen; cited from earlier work

## Trastuzumab
[1]; Table 8, cells judged to have tolerance/resistance to trastuzumab
  TGI of trastuzumab, judgement in words: weak
[1]; single agents, Nab-paclitaxel 0.5 mg/kg/day once a week for 3 weeks i.v., Temsirolimus 0.5 once a week for 5 weeks i.p., Trastuzumab 15 once a week for 8 weeks i.v., Afatinib dose not given
  TGI (%): 26%
[2]
  Result (treatment history before acquiring tumor tissue): Mixed response; also recorded: No response

“Also recorded” adds a separate entry of the source.
